Experimental data: patent US5030629A, “Compositions and method comprising heterocyclic compounds containing two heteroatoms as membrane penetration enhancers” (priority 1989, dated 1991)

Experiment: In vitro permeation of isosorbide dinitrate (ISDN) from creams through human stratum corneum
Conditions: control without enhancer

## O=[N+]([O-])O[C@H]1CO[C@H]2[C@@H]1OC[C@H]2O[N+](=O)[O-]
0.7% ISDN cream, 24 hours (ISDN: 40% ISDN & 60% Lactose)
  Average Cumulative Amount of ISDN in Micrograms Permeating over 24 hours: 442.5 ± 27.7 Micrograms
0.7% ISDN cream, 48 hours
  Average Cumulative Amount of ISDN in Micrograms Permeating over 48 Hours: 535.0 ± 25.0 Micrograms
1% ISDN cream, 51 hours
  Average Cumulative Amount of ISDN in Micrograms Permeating over 51 Hours: 678.5 ± 84.0 Micrograms
